# “And” between values parts separate entries of the source, which are not always exact repeats. Equal values may be shown once. This is a selection: effects in other tests are not listed, and their absence says nothing.
# Tested on: Homo sapiens
# Test: Evaluation of pharmacokinetic parameters for Fentanyl following first 72-hour topical application of a Fentanyl transdermal system
# Details: in vivo, topical_or_ocular
compound,measurement,value
CCC(=O)N(c1ccccc1)C1CCN(CCc2ccccc2)CC1,Tmax,34.8 h and 33.5 h and 36.8 h

# — ChEMBL document CHEMBL3832072
